From patent publication US4593019A, “N^6 -tricyclic adenosines” (Warner-Lambert Company, priority 1984, dated 1986)

By UniProt entry, the sequences of proteins in these tests, tags left out.
UniProt P25099, whole entry: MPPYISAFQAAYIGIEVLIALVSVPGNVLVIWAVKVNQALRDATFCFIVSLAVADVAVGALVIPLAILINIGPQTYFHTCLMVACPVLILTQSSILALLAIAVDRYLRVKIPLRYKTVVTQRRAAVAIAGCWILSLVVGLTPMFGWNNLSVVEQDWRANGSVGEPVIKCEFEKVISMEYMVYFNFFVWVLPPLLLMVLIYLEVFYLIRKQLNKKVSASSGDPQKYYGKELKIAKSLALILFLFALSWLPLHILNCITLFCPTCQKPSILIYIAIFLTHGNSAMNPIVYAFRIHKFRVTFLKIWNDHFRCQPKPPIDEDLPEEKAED

Target: T1, A1 receptor (Rattus norvegicus, UniProt P25099)
T1 construct: Whole brain minus cerebellum and brainstem from male Long Evans rats; from tissue; host or cells: rat whole brain minus cerebellum and brainstem (membranes)
Assay: Adenosine Receptor Binding - A1 Receptor Affinity (RBA1), [3H]-CHA displacement
Conditions: 1.0 nM [3H]-CHA, rat brain membranes, pH 7.7, 25° C., 1 h; read-out: RBA-1 IC50 (adenosine A1 receptor affinity)
Protocol: Adenosine Receptor Binding--A1 Receptor Affinity (RBA1) […] Whole brain minus cerebellum and brainstem from male Long Evans rats (150-200 g) was homogenized in 30 volumes of ice-cold 0.05 M Tris-HCl buffer pH 7.7 using a Brinkman Polytron PT-10, (setting number 6 for 20 seconds) and centrifuged for ten minutes at 20,000 x g (Sorvall RC-2), 4° C. The supernatant was discarded, and the pellet was resuspended and centrifuged as before. The pellet was resuspended in 20 ml Tris-HC1 buffer containing two International Units/ml of adenosine deaminase (Sigma type III from calf intestinal mucosa), incubated at 37° C. for 30 minutes, then subsequently at 0° C. for ten minutes. […] The radio-labeled ligand retained on the filter was measured by liquid scintillation spectrophotometry after shaking the filters for one hour or longer on a mechanical shaker in 10 ml of Beckman Ready-Solv HP scintillation cocktail. […] The Scatchard plot was calculated by linear regression of the line obtained by plotting the amount of radioligand bound (pmoles/gram of tissue) versus [bound radioligand/free radioligand].Since the amount of radioligand bound was a small fraction of the total amount added, free radioligand was defined as the concentration (nM) of radioligand added to the incubation mixture. […] The maximal number of binding sites (Bmax) was calculated from the Scatchard plot.

OC[C@H]1O[C@@H](n2cnc3c(NCC4c5ccccc5-c5ccccc54)ncnc32)[C@H](O)[C@@H]1O [Example 2]
IC50: 5.6 nM
